The record followed here is PubChem BioAssay AID588478 (ICCB-Longwood Screening Facility, Harvard Medical School, 2011).

By UniProt entry, the sequences of proteins in these tests, tags left out.
UniProt Q9Y5K5, whole entry: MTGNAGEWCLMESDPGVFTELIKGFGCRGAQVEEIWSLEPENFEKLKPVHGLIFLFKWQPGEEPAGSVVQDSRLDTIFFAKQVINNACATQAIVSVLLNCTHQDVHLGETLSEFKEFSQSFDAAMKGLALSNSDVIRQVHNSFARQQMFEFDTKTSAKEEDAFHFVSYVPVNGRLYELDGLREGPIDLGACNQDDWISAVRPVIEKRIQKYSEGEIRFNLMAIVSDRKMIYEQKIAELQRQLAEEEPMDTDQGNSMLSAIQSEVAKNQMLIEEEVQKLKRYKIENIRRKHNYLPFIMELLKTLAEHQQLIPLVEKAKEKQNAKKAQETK

SMILES strings stand for the structures. This is a selection; strong and weak results do not stand in their true shares. Active and inactive are the calls of the source.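 Rule for the calls: active = mean inhibition over replicate wells above about 20% (limit read from the data); inactive = the rest.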

This experiment concerns the target Ubiquitin carboxyl-terminal hydrolase isozyme L5 (Homo sapiens) (UniProt Q9Y5K5). The experiment is described as follows: proteasome-bound UCH37 DUB activity blockers – biochemical, Ub-AMC cleavage, fluorescence, primary screen (AID 588478).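 Note: 0% = compound-free wells with enzyme and 100% = wells lacking proteasome.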 Particulars: purified proteasome/UCH37, Ub-AMC cleavage fluorescence; stronger effect = higher value; concentration not given here. An outline of the steps:
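Material: Human UCH37 enzyme supplied as purified proteasome complex | Schedule: 30 min preincubation with enzyme, 25 min cleavage at room temperature | Detection: AMC fluorescence 355/460 nm | Measure: % inhibition of Ub-AMC cleavage fluorescence | Controls: Wells without proteasome as full block, compound-free enzyme plus substrate as uninhibited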
As to `Cc1ccc(NC(=NP(=O)(N2CCOCC2)N2CCOCC2)N2CCOCC2)cc1`, the inhibition was inactive: 1.05%.

On to `CN(C(=O)Cc1ccccc1)[C@@H]1CC[C@]2(CCCO2)C[C@H]1N1CCCC1`, for which the inhibition was inactive: 0.418%. Next, `CCOP1(=S)c2c(C)nn(CCC#N)c2N=C(c2ccc(F)cc2)N1C` (stereo unspecified): inactive: 2.37%; `CN(C)C(=O)c1cc([N+](=O)[O-])cc2c1-c1c(cc([N+](=O)[O-])cc1[N+](=O)[O-])C2=O`: inactive: 13.8%.

As to `O=[N+]([O-])c1ccc2c(c1)nnn2O`, the inhibition is inactive: 4.98%. Next, `CN(C(=O)Cc1ccc(Cl)c(Cl)c1)[C@H]1CC[C@@]2(CCCO2)C[C@@H]1N1CCCC1`: inactive: 2.2%; `CC1=NCCc2c1[nH]c1ccccc21.O=[N+]([O-])c1cc([N+](=O)[O-])c(O)c([N+](=O)[O-])c1`: inactive: -17%; `NC(=O)Nc1ccc([As](=O)(O)O)cc1`: inactive: 1.57%. `O=C(O)COc1ccc([As](=O)(O)O)cc1[N+](=O)[O-]`: the inhibition is inactive: 4.16%. Next, `Nc1ccccc1[As](=O)(O)c1ccccc1`: inactive: 3.2%; `O=C(O)c1cccc(Nc2c([N+](=O)[O-])cc([N+](=O)[O-])cc2[N+](=O)[O-])c1`: inactive: 17.3%; `CCOP1(=S)c2c(C)nn(CCC#N)c2N=C(c2ccccc2F)N1C` (stereo unspecified): inactive: 4.88%. Next, `O=P(Nc1nccs1)(c1ccccc1)c1nc2ccccc2s1` (stereo unspecified): inactive: 0.7%. Next, `O=P(Nc1nccs1)(Oc1ccccc1)Oc1ccccc1`: inactive: 3.59%. Turning to `CP(=O)(Nc1ccc(SC(F)(F)F)cc1)Oc1ccccc1` (stereo unspecified), the inhibition is inactive: 5.45%.

Regarding `Nc1cccc([As](=O)(O)c2ccccc2)c1`, the inhibition is inactive: -1.29%. Next, `CCCOc1ccc(NP(C)(=O)Oc2ccc(Cl)cc2)cc1` (stereo unspecified): inactive: 2.9%; `NS(=O)(=O)c1cccc(NC(=O)COC(=O)C(O)(c2ccccc2)c2ccccc2)c1`: inactive: 1.27%. Next, `O=P1(Nc2ccc(Br)cn2)COc2ccccc2OC1`: inactive: -2.41%. For the compound `Cc1ccc(OCC(=O)OC2CN3CCC2CC3)cc1` (stereo unspecified), the inhibition is inactive: 4.88%. Consider `O=[As](O)(c1cccs1)c1cccs1`, for which the inhibition is inactive: -2.78%. `O=P1(Nc2ncccn2)COc2ccccc2OC1`: the inhibition is inactive: 0.541%.

On to `CN1CCCCC1COC(=O)C1(O)c2ccccc2CCc2ccccc21` (stereo unspecified), for which the inhibition is inactive: 3.59%. Next, `COc1ccccc1OP(C)(=O)Nc1c(C)cccc1C` (stereo unspecified): inactive: 4.54%. `O=[N+]([O-])c1cc([N+](=O)[O-])c(Nc2nnnn2CCO)c([N+](=O)[O-])c1`: the inhibition was inactive: 18.3%.

Take `CC1=C2N=C(C=C3N=C(C(C)=C4[N-][C@@](C)([C@@H]5N=C1[C@](C)(CCC(=O)NC[C@@H](C)OP(=O)([O-])O[C@H]1[C@@H](O)[C@@H](n6cnc7cc(C)c(C)cc76)O[C@@H]1CO)[C@H]5CC(N)=O)[C@@](C)(CC(N)=O)[C@@H]4CCC(N)=O)[C@@](C)(CC(N)=O)[C@@H]3CCC(N)=O)C(C)(C)[C@@H]2CCC(N)=O.[C-]#N.[Co+3]`: the inhibition is active: 48.4%.

Turning to `CN(C)C1(CNC(=O)c2ccc(S(C)(=O)=O)cc2)CCCCC1`, the inhibition was inactive: -0.344%. Next, `CCOC(=O)C(CC)C1=NC(C)(C)Cc2ccccc21.O=[N+]([O-])c1cc([N+](=O)[O-])c(O)c([N+](=O)[O-])c1` (stereo unspecified): inactive: 15.7%; `O=C(/C=C/c1ccccc1)OC1CN2CCC1CC2` (stereo unspecified): inactive: 3.43%. As for `CCCC1OP(=O)(Nc2ccccc2)OCC1CC` (stereo unspecified), the inhibition was inactive: 2.63%. In the case of `Cc1nn(-c2ccccc2)c2c1P(=O)(N1CCOCC1)N(C)C(c1ccccc1)=N2` (stereo unspecified), the inhibition is inactive: 0.222%. With `Cc1ccc(C(=O)OC2CN3CCC2CC3)cc1` (stereo unspecified), the inhibition is inactive: 5.66%. Regarding `CC1CCC(C(C)C)C(OP(=O)(Nc2ccccn2)c2ccccc2)C1` (stereo unspecified), the inhibition is inactive: 0.337%.

Consider `COc1cc(C2NCCC3(OCCO3)C2(C)C)cc(OC)c1OC.O=[N+]([O-])c1cc([N+](=O)[O-])c(O)c([N+](=O)[O-])c1` (stereo unspecified), for which the inhibition is inactive: 3.8%. Next, `CN(C(=O)Cc1ccc(Cl)c(Cl)c1)[C@@H]1CCCC[C@H]1N1CCCC1`: inactive: 4.22%; `O=[As](O)(c1ccccc1Br)c1ccccc1Br`: inactive: 0.613%; `CC1(CBr)Cn2c(nc3ccccc3c2=O)S1` (stereo unspecified): inactive: 3.21%. As to `Cc1nc2ccc3ccccc3c2s1.O=[N+]([O-])c1cc([N+](=O)[O-])c(O)c([N+](=O)[O-])c1`, the inhibition was inactive: 19%. For the compound `O=[N+]([O-])c1cc([N+](=O)[O-])c(-c2cnn(-c3ccccc3)c2)c([N+](=O)[O-])c1`, the inhibition was inactive: 0.0881%.

Regarding `COc1ccccc1CNC(=O)COC(=O)C(O)(c1ccccc1)c1ccccc1`, the inhibition is inactive: 1.47%. With `Clc1n[nH]nc1-c1nn[nH][15n]1`, the inhibition is inactive: 2.14%. Next, `CC(C)(C)C(=O)NC(Sc1ncccn1)C(Cl)(Cl)Cl` (stereo unspecified): inactive: 0.49%; `O=P1(Nc2ccccn2)COc2ccccc2OC1`: inactive: 0.593%; `O=[N+]([O-])c1cc([N+](=O)[O-])c(-n2nnc3ccccc32)c([N+](=O)[O-])c1`: inactive: 11.5%. `CN(CCCl)Cc1cc(Cl)c(NC2=NCCN2)c(Cl)c1`: the inhibition was inactive: 6.24%. Next, `CCOP(=O)(Nc1ccc(C)cn1)OCC`: inactive: -5.25%.
